ChEMBL document CHEMBL4359846, “Design, synthesis, and antifibrosis evaluation of 4-(benzo-[c][1,2,5]thiadiazol-5-yl)-3(5)-(6-methyl- pyridin-2-yl)pyrazole and 3(5)-(6-methylpyridin- 2-yl)-4-(thieno-[3,2,-c]pyridin-2-yl)pyrazole derivatives” (Eur J Med Chem, 2019)

How the values were obtained:
[1] = target: T1, TGF-beta receptor type-1 (Homo sapiens) (UniProt P36897); test: Inhibition of ALK5 in human LX2 cells assessed as reduction in TGFbeta-induced collagen 1 production pretreated for 1 hr followed by TGFbeta addition and measured after 12 hrs by DAPI staining based immunocytochemistry analysis by confocal laser scanning microscopic method; assay type: cell-based
T1 sequence (whole entry): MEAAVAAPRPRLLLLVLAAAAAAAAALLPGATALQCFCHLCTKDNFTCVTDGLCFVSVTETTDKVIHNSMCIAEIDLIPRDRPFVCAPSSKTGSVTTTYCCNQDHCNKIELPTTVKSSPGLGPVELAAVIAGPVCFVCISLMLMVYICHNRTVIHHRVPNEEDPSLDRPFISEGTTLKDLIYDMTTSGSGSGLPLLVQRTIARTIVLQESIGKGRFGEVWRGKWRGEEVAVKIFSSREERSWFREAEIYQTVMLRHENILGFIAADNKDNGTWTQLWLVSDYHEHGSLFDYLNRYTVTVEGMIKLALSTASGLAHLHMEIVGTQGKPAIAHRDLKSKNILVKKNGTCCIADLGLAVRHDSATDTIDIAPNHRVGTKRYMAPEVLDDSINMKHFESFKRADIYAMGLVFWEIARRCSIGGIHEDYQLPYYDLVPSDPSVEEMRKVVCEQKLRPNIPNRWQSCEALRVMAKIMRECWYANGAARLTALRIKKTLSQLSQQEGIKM

[2] = target: T1, TGF-beta receptor type-1 (Homo sapiens); test: Inhibition of ALK5 in human LX2 cells assessed as reduction in TGFbeta-induced alphaSMA production pretreated for 1 hr followed by TGFbeta addition and measured after 12 hrs by DAPI staining based immunocytochemistry analysis by confocal laser scanning microscopic method; assay type: cell-based

Question: `Cc1cccc(-c2nn(CC(=S)Nc3cccc(F)c3)cc2-c2ccc3nsnc3c2)n1` was tested. Which inhibition [1] did it give?
Answer: Dose-dependent effect

Question: And the inhibition [2]?
Answer: Dose-dependent effect

Question: With `Cc1cccc(-c2nn(CC(=O)Nc3ccccc3)cc2-c2cc3cnccc3s2)n1` as the compound, how does the inhibition [1] read?
Answer: Dose-dependent effect

Question: What about the inhibition [2] of the same compound?
Answer: Dose-dependent effect
